Biological target: T1, 17-beta-hydroxysteroid dehydrogenase type 2 (Homo sapiens, UniProt P37059)
T1 sequence (P37059 whole entry): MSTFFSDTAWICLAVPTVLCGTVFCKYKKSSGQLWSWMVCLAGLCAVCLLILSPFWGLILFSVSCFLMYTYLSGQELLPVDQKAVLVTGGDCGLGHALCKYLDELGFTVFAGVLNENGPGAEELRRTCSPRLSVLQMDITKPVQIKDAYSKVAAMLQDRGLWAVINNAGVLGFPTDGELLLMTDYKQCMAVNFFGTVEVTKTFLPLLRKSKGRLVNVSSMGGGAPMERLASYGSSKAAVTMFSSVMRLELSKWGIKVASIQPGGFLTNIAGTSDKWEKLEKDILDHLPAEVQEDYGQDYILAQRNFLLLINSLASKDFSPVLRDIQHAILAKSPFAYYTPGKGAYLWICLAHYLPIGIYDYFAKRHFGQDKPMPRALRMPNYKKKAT
Test: Inhibition of human recombinant 17beta-HSD2 expressed in HEK293 cell lysate assessed as conversion of radiolabeled estrone to estradiol
Format: cell-free

SMILES: O=c1c(-c2ccc(O)cc2)coc2cc(O)cc(O)c12 [GENISTEIN]
- IC50: 16.5 µM

From ChEMBL document CHEMBL1157467, “Discovery of nonsteroidal 17beta-hydroxysteroid dehydrogenase 1 inhibitors by pharmacophore-based screening of virtual compound libraries” (J Med Chem, 2008)
